Test results taken from PubChem BioAssay AID1832 (Broad Institute, 2009).
This is a selection; strong and weak results do not stand in their true shares. Activity calls are given as the source filed them.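 Rule for the calls: active = inhibition past about -25% in most replicates, and total fluorescence under double the plate's negative control median (limit read from the data); inconclusive = replicates evenly split on the limit, or fluorescence at least double controls; inactive = too little inhibition in most replicates.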

Protein sequences, listed by entry. Tags and fused reporters are not part of them. Lines headed by an entry give the natural chain unless they say otherwise; changes in a name come on top.
UniProt Q9XUB2: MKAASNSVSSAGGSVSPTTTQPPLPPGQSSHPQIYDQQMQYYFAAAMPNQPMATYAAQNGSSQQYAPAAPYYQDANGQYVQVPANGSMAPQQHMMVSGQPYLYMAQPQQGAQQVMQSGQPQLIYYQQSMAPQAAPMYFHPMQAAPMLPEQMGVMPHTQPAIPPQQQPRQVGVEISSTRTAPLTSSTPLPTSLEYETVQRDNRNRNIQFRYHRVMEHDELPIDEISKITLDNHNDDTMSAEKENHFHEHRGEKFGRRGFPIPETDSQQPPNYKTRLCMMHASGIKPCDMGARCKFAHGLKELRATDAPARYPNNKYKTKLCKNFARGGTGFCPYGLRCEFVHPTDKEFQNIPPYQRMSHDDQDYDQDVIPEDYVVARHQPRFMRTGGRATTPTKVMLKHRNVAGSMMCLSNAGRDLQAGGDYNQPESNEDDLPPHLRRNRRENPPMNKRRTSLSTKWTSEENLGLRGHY

What follows are compounds tested against Zinc finger protein mex-5 (Caenorhabditis elegans) (UniProt Q9XUB2) (assay: MEX-5 zinc finger RNA-binding disruptors – biochemical, C. elegans, fluorescence polarization, MLPCN library, primary screen (AID 1832;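 note: 0% = DMSO and -100% = 5 µM competing unlabeled TCR2 RNA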)). Conditions: MEX-5/FITC-TCR2 RNA binding, at 10 µM, active compounds read low.

Compound | activity score (negative = inhibition of binding)
O=[N+]([O-])c1ccc(O)c(/C=N/Nc2ccc([N+](=O)[O-])cc2[N+](=O)[O-])c1 | inactive: 0.594%
O=[N+]([O-])c1ncn(CCn2cnc([N+](=O)[O-])n2)n1 | inactive: 2.31%
O=P(Nc1nc2ccccc2s1)(c1ccccc1)c1ccccc1 | inactive: -3.47%
C[C@H]1OP(=O)(Oc2ccccc2)[C@H](O)[C@H](O)[C@H]1N=[N+]=[N-] (some centres undefined) | inactive: 0.512%
O=P(Nc1ccccn1)(c1ccc(Br)cc1)c1ccc(Br)cc1 | inactive: 0.594%
CN(C)C1(CNC(=O)c2ccc(Cl)c(S(N)(=O)=O)c2)CCCCC1 | inactive: 1.6%
Nc1cccc([As](=O)(O)c2ccccc2)c1 | inactive: -0.505%
O=P1(Nc2ccc(Br)cn2)COc2ccccc2OC1 | inactive: -1.38%
Cc1ccc(OCC(=O)OC2CN3CCC2CC3)cc1 (centres undefined) | inactive: -1.62%
O=[As](O)(c1cccs1)c1cccs1 | inactive: -1.25%
O=P1(Nc2ncccn2)COc2ccccc2OC1 | inactive: -1.11%
CN(C)C1(CNC(=O)c2ccc(S(C)(=O)=O)cc2)CCCCC1 | inactive: -0.507%
O=C(/C=C/c1ccccc1)OC1CN2CCC1CC2 (centres undefined) | inactive: -2.67%
Cc1nn(-c2ccccc2)c2c1P(=O)(N1CCOCC1)N(C)C(c1ccccc1)=N2 (centres undefined) | inactive: 1.69%
CC1CCC(C(C)C)C(OP(=O)(Nc2ccccn2)c2ccccc2)C1 (centres undefined) | inactive: 1.99%
Cc1ccc(C(=O)OC2CN3CCC2CC3)cc1 (centres undefined) | inactive: -0.264%
CC(C)/C=N\N=C(\N)N[N+](=O)[O-] | inactive: -0.74%
CN(C(=O)Cc1ccc(Cl)c(Cl)c1)[C@@H]1CCCC[C@H]1N1CCCC1 | inactive: -1.21%
O=[As](O)(c1ccccc1Br)c1ccccc1Br | inactive: 1.36%
CC1(CBr)Cn2c(nc3ccccc3c2=O)S1 (centres undefined) | inactive: -0.000535%
COc1ccccc1CNC(=O)COC(=O)C(O)(c1ccccc1)c1ccccc1 | inactive: -3.57%
Clc1n[nH]nc1-c1nn[nH][15n]1 | inactive: 0.499%
CC(C)(C)C(=O)NC(Sc1ncccn1)C(Cl)(Cl)Cl (centres undefined) | inactive: -6.5%
O=P1(Nc2ccccn2)COc2ccccc2OC1 | inactive: 1.89%
CCC1=CC2Cc3nc4ccc(Cl)cc4c(N)c3C(C1)C2 (centres undefined) | inactive: -0.742%
CCOP(=O)(NC(=NC(C)c1ccccc1)NC(C)c1ccccc1)OCC (centres undefined) | inactive: 0.262%
CN(CCCl)Cc1cc(Cl)c(NC2=NCCN2)c(Cl)c1 | inactive: -0.193%

Compound | activity score (negative = inhibition of binding)
CCOP(=O)(Nc1ccc(C)cn1)OCC | inactive: -2.09%
COc1cc(C2NCCC3(OCCO3)C2(C)C)cc(OC)c1OC (centres undefined) | inactive: -1.57%
CCOP(=O)(Nc1cccc2ccccc12)OCC | inactive: 0.34%
Cc1ccc(NCCc2c([N+](=O)[O-])cc([N+](=O)[O-])cc2[N+](=O)[O-])cc1 | inactive: 1.64%
CCCOP(=S)(Nc1nc(N)cc(=O)[nH]1)OCCC | inactive: 1.78%
O=[As](O)(c1cccc(O)c1)c1cccc(O)c1 | inactive: 0.77%
Cc1cccc(OCC(=O)OC2CN3CCC2CC3)c1 (centres undefined) | inactive: 1.7%
O=C(OC1CN2CCC1CC2)c1ccc(Cl)cc1 (centres undefined) | inactive: 1.64%
COc1cc(C(=O)NCC2(N3CCOCC3)CCCCC2)cc(Cl)c1OC(C)C | inactive: -1.75%
O=[As](O)(O)c1cccnc1 | inactive: 0.767%
CS(=O)(=O)c1ccc(Cl)c(NC(=O)COC(=O)C(O)(c2ccccc2)c2ccccc2)c1 | inactive: 1.82%
N#CCCN(C(=O)COC(=O)C(O)(c1ccccc1)c1ccccc1)c1ccc(F)cc1 | inactive: 0.89%
CCOP1(=S)c2c(C)nn(CCC#N)c2N=C(c2ccc(F)cc2)N1C (centres undefined) | inactive: -0.183%
CN(C(=O)Cc1ccccc1)[C@@H]1CC[C@]2(CCCO2)C[C@H]1N1CCCC1 | inactive: -3.4%
CN(C)C(=O)c1cc([N+](=O)[O-])cc2c1-c1c(cc([N+](=O)[O-])cc1[N+](=O)[O-])C2=O | inactive: 1.03%
O=[N+]([O-])c1ccc2c(c1)nnn2O | inactive: -1.9%
CN(C(=O)Cc1ccc(Cl)c(Cl)c1)[C@H]1CC[C@@]2(CCCO2)C[C@@H]1N1CCCC1 | inactive: -0.35%
NC(=O)Nc1ccc([As](=O)(O)O)cc1 | inactive: 0.983%
Nc1ccccc1[As](=O)(O)c1ccccc1 | inactive: 0.00476%
O=C(O)COc1ccc([As](=O)(O)O)cc1[N+](=O)[O-] | inactive: -0.374%
CCOP1(=S)c2c(C)nn(CCC#N)c2N=C(c2ccccc2F)N1C (centres undefined) | inactive: 4.31%
O=P(Nc1nccs1)(c1ccccc1)c1nc2ccccc2s1 (centres undefined) | inactive: -3.95%
O=P(Nc1nccs1)(Oc1ccccc1)Oc1ccccc1 | inactive: 0.998%
CS(=O)(=O)c1cc([N+](=O)[O-])c2no[n+]([O-])c2c1 | inactive: -12.9%
CCN(CC)C(=S)SC(NC=O)C(Cl)(Cl)Cl (centres undefined) | inactive: 2.38%
CC(C)NC(=O)NP(=O)(Oc1ccccc1)Oc1ccccc1 | inactive: 2.1%
O=[N+]([O-])c1cc([N+](=O)[O-])c(-c2ccn[nH]2)s1 | inactive: -0.387%

Compound | activity score (negative = inhibition of binding)
ClCCSc1nnc(-c2cccnc2)o1 | inactive: 2.19%
CC(C)c1ccc(OP(=O)(Nc2ccccn2)Oc2ccccc2F)cc1 (centres undefined) | inactive: -3.1%
Cc1ccc(OP(=O)(Nc2ccc([N+](=O)[O-])cn2)Oc2ccc(C)cc2)cc1 | inactive: -1.38%
Cc1ccc2nc3c(c(C)c2c1)CC(C(Cl)Cl)S3 (centres undefined) | inactive: -3.15%
C[As](=O)(O)c1cccc(C(=O)O)c1 | inactive: 0.678%
O=[As](O)(c1ccc(O)cc1)c1ccccc1O | inactive: -0.0823%
COc1ccc(N/C(=N/P(=O)(N2CCOCC2)N2CCOCC2)N2CCOCC2)cc1 | inactive: 1.15%
COc1ccc2nc(NP(=O)(c3ccccc3)c3ccccc3)sc2c1 | inactive: -1.19%
COc1cc(I)ccc1[As](=O)(O)O | inactive: -3.65%
Cc1c2c(nc3ccccc13)SC(C(Cl)Cl)C2 (centres undefined) | inactive: 2.62%
O=C(OC1CN2CCC1CC2)C12CC3CC(CC(C3)C1)C2 (centres undefined) | inactive: 0.495%
Cc1cc(=O)[nH]c(N[N+](=O)[O-])n1 | inactive: -0.682%
CCC(C)N(CC(C)C)C(=S)SC(NC(C)=O)C(Cl)(Cl)Cl (centres undefined) | inactive: -0.588%
O=C(OC1CN2CCC1CC2)c1cccc([N+](=O)[O-])c1 (centres undefined) | inactive: -2.16%
CCOC(=O)c1ccc(NC(=O)C(C)(CCl)SC)cc1 (centres undefined) | inactive: 1%
O=C(COc1ccccc1)OC1CN2CCC1CC2 (centres undefined) | inactive: -2.33%
O=C(Nc1ccncc1[N+](=O)[O-])c1ccc([N+](=O)[O-])cc1[N+](=O)[O-] | inactive: -0.269%
COP1(=S)c2c(C)nn(CCC#N)c2N=C(c2ccc(F)cc2)N1C (centres undefined) | inactive: -2.04%
O=P(Nc1ccccn1)(c1cccc2ccccc12)c1cccc2ccccc12 | inactive: 2.88%
Cc1cc(SC(NC=O)C(Cl)(Cl)Cl)ncn1 (centres undefined) | inactive: 1.56%
O=[N+]([O-])c1ccc(Nc2ccc(Oc3ccc([N+](=O)[O-])cc3[N+](=O)[O-])cc2)c([N+](=O)[O-])c1 | inactive: -0.585%
CCOC(=O)Nc1cccc([As](=O)(O)O)c1 | inactive: 0.405%
CCCCOc1ccc(C(=O)NCC2(N3CCCCC3)CCCCC2)cc1OC | inactive: 2.38%
Cc1cc(SC(NC(=O)c2ccccc2)C(Cl)(Cl)Cl)nc(C(C)C)n1 (centres undefined) | inactive: -0.0132%
CCOC(=O)Nc1ccc([As](=O)(O)O)c(O)c1 | inactive: -3.51%
